The values below are quoted from earlier work in US20240342186A1, “PYRIDINE DERIVATIVES WITH N-LINKED CYCLIC SUBSTITUENTS AS cGAS INHIBITORS” (Boehringer Ingelheim International GmbH, priority 2021, published 2024).

The data set relates to cGAS/STING pathway. The conditions noted are these: prior art statement; cited from earlier work.

The structures appear in SMILES notation.

As to `O=C(N[C@H]1CCCC[C@H]1C(=O)O)c1cnn2c(O)cc(-c3ccccc3)nc12`, the “cellular activity as a cGAS inhibitor” value was “no acceptable cellular activity”.
